Measured values as given in US20070026465A1, “Method for detecting GAD65 autoreactive T cells newly diagnosed type1 diabetic patients and in the prediabetic period” (priority 2005, published 2007).
Several values for one entry are separate records, joined by “and”; a condition that tells them apart may be missing. Identical values can stand only once.

Tested on: PBMC of newly diagnosed T1D patients
Assay: GAD65 HLA class I tetramer staining and flow cytometry of stimulated PBMC, T1D patients
Assay type: cell-based, human
Set-up: % CD3+/CD8+/GAD65 reactive T cells, average / % CD3+/CD8+/GAD65 reactive T cells: concentration or dose not given beside the values
Settings: IL-2 treated PBMC

## IL-2: cytokine used at 25 IU/ml for basal stimulation of PBMC [reference compound]
Average of 22 T1D patients, day 6
  % CD3+/CD8+/GAD65 reactive T cells, average: 4.0%
Individual T1D patients, day 6 of culture
  % CD3+/CD8+/GAD65 reactive T cells: 1.4% and 0.32% and 0.1% and 2.44% and 0.2% (3×) and 5% and 20% and 8.6% and 0.75% and 14% and 11% and 0.6% and 1.74% and 2.45% and 0.21% and 2.47% and 15% and 0.28% (2×) and 1.31%
